Like-named read-outs stand apart in the source and are kept apart here. Values belong to the compound of their own block, whether it stands above or below them.
Assays:
[1] = biological target: EML4-ALK-BaF3 (Homo sapiens, UniProt Q9UM73); assay: Growth inhibition of EML4-ALK transformed BaF3 cells (MTS); assay type: cell-based
[2] = biological target: NPM-ALK-BaF3 (Homo sapiens, UniProt Q9UM73); assay: Growth inhibition of NPM-ALK transformed BaF3 cells (MTS)
[3] = tested on: wild type BaF3; assay: Growth inhibition of wild type BaF3 cells (broad-spectrum toxicity)

Amino acid sequences for entries named in this document (tags omitted). Chains listed by the source or under a name are the forms on record and can include a tag or linker. Residues count along the entry.
UniProt Q9UM73, 1058-1620 limits assumed: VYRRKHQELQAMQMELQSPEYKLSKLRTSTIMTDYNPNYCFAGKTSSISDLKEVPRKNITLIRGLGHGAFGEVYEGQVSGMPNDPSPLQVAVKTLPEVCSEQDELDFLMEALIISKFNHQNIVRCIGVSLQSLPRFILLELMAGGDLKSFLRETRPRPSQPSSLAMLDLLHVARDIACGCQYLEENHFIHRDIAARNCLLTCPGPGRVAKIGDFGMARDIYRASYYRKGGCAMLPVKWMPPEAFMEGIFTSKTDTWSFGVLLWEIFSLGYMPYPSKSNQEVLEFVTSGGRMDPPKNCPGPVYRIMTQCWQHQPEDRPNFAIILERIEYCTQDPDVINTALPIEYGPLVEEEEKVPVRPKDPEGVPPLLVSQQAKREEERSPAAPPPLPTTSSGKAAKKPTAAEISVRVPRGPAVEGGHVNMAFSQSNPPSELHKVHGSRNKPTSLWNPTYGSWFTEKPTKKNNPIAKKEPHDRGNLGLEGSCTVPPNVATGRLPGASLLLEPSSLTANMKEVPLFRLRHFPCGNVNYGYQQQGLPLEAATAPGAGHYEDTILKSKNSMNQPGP
UniProt Q9UM73, with tags, fused parts or gaps limits assumed: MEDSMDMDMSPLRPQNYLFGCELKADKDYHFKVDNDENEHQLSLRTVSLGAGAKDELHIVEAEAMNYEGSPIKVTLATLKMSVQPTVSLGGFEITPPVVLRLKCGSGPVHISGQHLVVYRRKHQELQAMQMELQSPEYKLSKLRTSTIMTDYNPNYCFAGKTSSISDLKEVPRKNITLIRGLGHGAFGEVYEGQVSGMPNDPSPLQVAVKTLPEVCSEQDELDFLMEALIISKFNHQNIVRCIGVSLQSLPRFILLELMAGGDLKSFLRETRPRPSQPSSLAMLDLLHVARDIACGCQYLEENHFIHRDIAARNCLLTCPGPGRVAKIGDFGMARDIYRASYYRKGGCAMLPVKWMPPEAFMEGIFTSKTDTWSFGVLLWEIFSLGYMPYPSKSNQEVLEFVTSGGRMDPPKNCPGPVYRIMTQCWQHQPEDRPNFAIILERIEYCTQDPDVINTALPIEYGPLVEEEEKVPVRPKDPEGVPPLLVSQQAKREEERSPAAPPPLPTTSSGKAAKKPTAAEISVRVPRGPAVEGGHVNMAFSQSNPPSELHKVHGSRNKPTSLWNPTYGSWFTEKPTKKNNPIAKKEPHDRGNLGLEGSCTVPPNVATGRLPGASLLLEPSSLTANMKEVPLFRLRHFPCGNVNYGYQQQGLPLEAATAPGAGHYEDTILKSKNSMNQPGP

IC50 ([1]; read-out: EML4-ALK (IC50 nM), 48 hours, Table 11): 4420 nM
IC50 ([2]; read-out: NPM-ALK (IC50 nM), 48 hours, Table 11): 6630 nM
Compound: COc1cc(N2CCC(N3CCN(C)CC3)CC2)ccc1Nc1nc(NCc2ccccc2S(=O)(=O)C(C)C)c2[nH]ccc2n1
IC50 ([3]; read-out: BaF3 (IC50 nM), 48 hours, MTS, Table 11): 7810 nM

IC50 ([1]; read-out: EML4-ALK (IC50 nM), 48 hours, Table 11, tested form: TFA salt): 1560 nM
IC50 ([2]; read-out: NPM-ALK (IC50 nM), 48 hours, Table 11, tested form: TFA salt): 1940 nM
Compound: COC(=O)c1cccc(Nc2nc(Nc3ccc(N4CCN(C)CC4)cc3)nc3cc[nH]c23)c1
IC50 ([3]; read-out: BaF3 (IC50 nM), 48 hours, MTS, Table 11, tested form: TFA salt): 2550 nM

IC50 ([1]; read-out: EML4-ALK (IC50 nM), 48 hours, Table 12, tested form: TFA salt): > 10000 nM
IC50 ([2]; read-out: NPM-ALK (IC50 nM), 48 hours, Table 12, tested form: TFA salt): > 10000 nM
Compound: CCOc1cc(N2CCC(O)CC2)ccc1Nc1nc(NCc2ccccc2SC)c2c(ccn2C)n1
IC50 ([3]; read-out: BaF3 (IC50 nM), 48 hours, MTS, Table 12, tested form: TFA salt): > 10000 nM

IC50 ([1]; read-out: EML4-ALK (IC50 nM), 48 hours, Table 12): > 10000 nM
IC50 ([2]; read-out: NPM-ALK (IC50 nM), 48 hours, Table 12): > 10000 nM
Compound: CCOc1cc(N2CCC(O)CC2)ccc1Nc1nc(NCc2ccccc2S(C)(=O)=O)c2c(ccn2C)n1
IC50 ([3]; read-out: BaF3 (IC50 nM), 48 hours, MTS, Table 12): > 10000 nM

From patent US10508118B2, “Pyrimidopyrrole compounds, method for preparing the same, pharmaceutical compositions comprising the same and uses thereof” (Xiamen University, priority 2015, dated 2019)
